Test system: HMGB1-induced TNF release, human primary macrophages
Assay: HMGB1-induced TNF release in human primary macrophages (ELISA)
Format: cell-based

NC(=O)N(CCC(=O)O)NC(=O)[C@H](CO)NC(=O)[C@H](CO)NC(=O)N(N)Cc1ccccc1 [K883] was tested, and the IC50 (Homo sapiens, Primary macrophage, 16 h, read-out: IC50, inhibition of HMGB1-induced TNF release) was 1 µM and the “inhibition of HMGB1-induced TNF secretion” value (human macrophages, FIG. 17A) was “causes inhibition”.
